In patent US5045530A, “Pharmaceutical preparations” (priority 1986, dated 1991):

Conditions: micellarly included

HgCl2
reduction of toxicity by inclusion in N-tensides: up to 80%
